Test results from the NIST ThermoML archive (doi:10.1016/j.fluid.2008.04.021).

Test: excess molar enthalpy (molar enthalpy of mixing); xn = mol fraction of the nth substance listed
Conditions: 298.15 K; Liquid; x2 = 0

- excess molar enthalpy: 0 ± 0.000478 kcal/mol
Structure (SMILES): CCCCOCCCC [dibutyl ether] + FC(F)(F)C(F)(F)C(F)(F)C(F)(F)C(F)(F)C(F)(F)F

Numbers after ± are expanded uncertainties.
